What was measured:
Stromelysin-1 = Stromelysin-1 (Homo sapiens, UniProt P08254)
[1] = biological target: T1, Interstitial collagenase (Homo sapiens) (UniProt P03956); conditions: 250 uM
T1 sequence (whole entry): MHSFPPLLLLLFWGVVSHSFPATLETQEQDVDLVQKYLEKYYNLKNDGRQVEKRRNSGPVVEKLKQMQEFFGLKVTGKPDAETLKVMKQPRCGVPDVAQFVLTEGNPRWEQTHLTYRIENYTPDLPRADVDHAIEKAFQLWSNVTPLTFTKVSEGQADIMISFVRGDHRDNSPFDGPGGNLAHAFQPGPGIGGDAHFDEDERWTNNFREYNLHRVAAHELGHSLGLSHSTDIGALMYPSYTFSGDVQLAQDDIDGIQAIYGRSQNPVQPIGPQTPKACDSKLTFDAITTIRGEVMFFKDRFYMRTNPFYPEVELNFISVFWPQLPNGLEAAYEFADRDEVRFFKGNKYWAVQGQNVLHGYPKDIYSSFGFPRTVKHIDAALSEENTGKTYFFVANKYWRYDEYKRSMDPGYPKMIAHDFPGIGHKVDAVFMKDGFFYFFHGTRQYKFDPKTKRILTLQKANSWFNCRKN

Chains of the proteins cited; added tags and fusions are not shown. Lines headed by an entry give the natural chain unless they say otherwise; changes in a name come on top.
UniProt P08254: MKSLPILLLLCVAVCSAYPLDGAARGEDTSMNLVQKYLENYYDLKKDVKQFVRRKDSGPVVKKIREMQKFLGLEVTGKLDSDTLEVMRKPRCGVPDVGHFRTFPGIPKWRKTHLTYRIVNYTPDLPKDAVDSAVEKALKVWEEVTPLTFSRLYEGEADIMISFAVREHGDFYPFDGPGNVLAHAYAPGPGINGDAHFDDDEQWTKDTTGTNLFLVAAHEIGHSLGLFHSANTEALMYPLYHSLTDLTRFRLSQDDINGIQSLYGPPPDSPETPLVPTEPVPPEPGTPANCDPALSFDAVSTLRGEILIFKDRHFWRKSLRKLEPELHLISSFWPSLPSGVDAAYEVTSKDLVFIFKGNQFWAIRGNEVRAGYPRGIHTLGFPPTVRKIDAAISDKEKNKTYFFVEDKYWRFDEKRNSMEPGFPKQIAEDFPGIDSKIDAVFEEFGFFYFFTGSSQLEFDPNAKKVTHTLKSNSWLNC

[2] = biological target: T2, Matrilysin (Homo sapiens) (UniProt P09237); conditions: 250 uM
T2 sequence (whole entry): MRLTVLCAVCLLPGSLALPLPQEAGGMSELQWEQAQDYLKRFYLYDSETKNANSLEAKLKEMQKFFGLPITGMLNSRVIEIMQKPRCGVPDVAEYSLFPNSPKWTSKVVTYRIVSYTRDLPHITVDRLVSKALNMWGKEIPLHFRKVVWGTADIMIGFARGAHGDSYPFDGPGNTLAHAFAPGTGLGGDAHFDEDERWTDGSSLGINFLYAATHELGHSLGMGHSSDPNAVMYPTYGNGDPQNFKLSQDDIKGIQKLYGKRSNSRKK

`Nc1ccc(Oc2ccc(S(=O)(=O)CC3CS3)cc2)cc1` (stereo not drawn) [listing 1 of 2 here] showed a Ki (Stromelysin-1) of 23.4 µM.
Compound `Nc1ccc(Oc2ccc(S(=O)(=O)CC3CS3)cc2)cc1` (stereo not drawn) [listing 2 of 2 here] has an inhibition [1] of 10% and an inhibition [2] of 16%.
